{
  "source": "patent US20160331743A1",
  "about": "“PHARMACEUTICAL COMPOSITIONS COMPRISING IMIQUIMOD FOR USE IN THE TREATMENT OF CARCINOMA IN SITU OF THE BLADDER” (UROGEN PHARMA LTD, priority 2014, published 2016)",
  "tested_on": "carcinoma in situ (CIS) bladder cancer",
  "conditions": "Patient 2, after imiquimod treatment; imiquimod 0.4%, 50 mL intravesical, once weekly for 6 weeks",
  "data": [
    {"smiles": "CC(C)Cn1cnc2c(N)nc3ccccc3c21", "note": "[imiquimod, 1-Isobutyl-1H-imidazo[4,5-c]quinolin-4-amine]", "values": [
      {"measurement": "Ratio of malignant to non-malignant cells", "result": "seems to be improved"}
    ]}
  ]
}
